# From patent publication US5453426A, “Sulfur-containing xanthine derivatives as adenosine antagonists” (priority 1994, dated 1995)
# By UniProt entry, the sequences of proteins in these tests, tags left out.
# UniProt P25099, whole entry, looked up: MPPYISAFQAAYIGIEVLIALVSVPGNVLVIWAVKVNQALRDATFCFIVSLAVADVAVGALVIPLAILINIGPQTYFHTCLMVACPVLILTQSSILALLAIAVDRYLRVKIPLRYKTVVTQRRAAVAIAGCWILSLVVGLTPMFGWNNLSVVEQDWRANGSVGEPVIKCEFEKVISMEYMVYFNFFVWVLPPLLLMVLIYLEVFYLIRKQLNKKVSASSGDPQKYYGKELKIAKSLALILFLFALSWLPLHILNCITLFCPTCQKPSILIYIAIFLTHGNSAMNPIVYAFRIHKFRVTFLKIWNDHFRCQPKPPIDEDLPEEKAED
# Columns and labels:
# [1] = target: A1 adenosine receptors (Rattus norvegicus, UniProt P25099); experiment: Inhibition of binding of [3H]N6-phenylisopropyladenosine to A1 adenosine receptors in rat cerebral cortical membranes; settings: ratio of A2 (rat striatum) to A1 (rat cortex) Ki
# [2] = test system: adenosine receptor; settings: background; cited from earlier work
smiles,measurement,setting,value
"Cn1c(=O)c2[nH]cnc2n(C)c1=O [Compound 1a, theophylline]",Ki (A2)/Ki (A1),[1],2.99
same,selectivity and strength as adenosine antagonists,[2],non-selective and relatively weak adenosine antagonists
